A word on the EC50: it is the midpoint of the concentration-response curve. The low end stands for an effect from little substance, the high end for a need for much substance. One may read the EC80 as the concentration needed for an effect of 80%. A lower EC80 goes with greater potency.

The chains behind the UniProt entries cited, without tags or fusion partners. Residues count along the entry.
UniProt P41586, 21-468: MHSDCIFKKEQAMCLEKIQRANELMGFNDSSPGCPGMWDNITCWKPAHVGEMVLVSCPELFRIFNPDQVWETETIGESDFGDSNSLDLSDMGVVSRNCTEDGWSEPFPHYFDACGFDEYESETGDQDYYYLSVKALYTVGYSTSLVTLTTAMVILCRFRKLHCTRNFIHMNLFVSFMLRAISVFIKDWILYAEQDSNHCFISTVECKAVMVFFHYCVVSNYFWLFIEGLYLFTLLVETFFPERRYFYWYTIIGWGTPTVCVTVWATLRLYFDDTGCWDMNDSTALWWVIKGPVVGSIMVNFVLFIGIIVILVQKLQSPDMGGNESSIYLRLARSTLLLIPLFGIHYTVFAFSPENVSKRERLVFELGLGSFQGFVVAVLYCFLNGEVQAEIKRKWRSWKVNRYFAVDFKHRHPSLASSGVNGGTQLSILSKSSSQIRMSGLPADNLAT
UniProt P55085, 26-397: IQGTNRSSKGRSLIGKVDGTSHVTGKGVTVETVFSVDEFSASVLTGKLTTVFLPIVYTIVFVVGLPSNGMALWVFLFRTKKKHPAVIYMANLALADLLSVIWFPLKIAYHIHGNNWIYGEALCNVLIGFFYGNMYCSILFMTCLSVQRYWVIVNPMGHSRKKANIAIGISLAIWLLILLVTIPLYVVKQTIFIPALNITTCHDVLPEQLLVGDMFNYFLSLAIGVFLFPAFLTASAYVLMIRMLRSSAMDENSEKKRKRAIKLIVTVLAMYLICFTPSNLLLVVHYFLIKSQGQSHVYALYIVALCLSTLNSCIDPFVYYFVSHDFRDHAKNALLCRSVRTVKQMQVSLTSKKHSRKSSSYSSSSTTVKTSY
UniProt P49190, 25-550: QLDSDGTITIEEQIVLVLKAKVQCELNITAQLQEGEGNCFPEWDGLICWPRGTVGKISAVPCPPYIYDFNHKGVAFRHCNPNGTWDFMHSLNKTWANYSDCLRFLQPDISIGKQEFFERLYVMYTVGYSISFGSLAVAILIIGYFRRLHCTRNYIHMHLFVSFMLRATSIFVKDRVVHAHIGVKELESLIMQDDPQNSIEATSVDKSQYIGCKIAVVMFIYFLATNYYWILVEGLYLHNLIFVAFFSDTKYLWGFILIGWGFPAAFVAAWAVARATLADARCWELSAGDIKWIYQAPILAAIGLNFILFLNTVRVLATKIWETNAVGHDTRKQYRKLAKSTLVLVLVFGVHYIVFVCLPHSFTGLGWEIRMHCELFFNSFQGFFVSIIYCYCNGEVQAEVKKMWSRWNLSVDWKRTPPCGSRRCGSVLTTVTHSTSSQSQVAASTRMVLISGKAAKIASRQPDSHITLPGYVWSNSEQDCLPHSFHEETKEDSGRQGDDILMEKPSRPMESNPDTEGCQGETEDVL

One assay deals with T1, F2RL3 (Homo sapiens, UniProt Q96RI0).
T1 construct: expressed in transfected cells; host or cells: CHO-K1
T1 sequence (Q96RI0 18-385): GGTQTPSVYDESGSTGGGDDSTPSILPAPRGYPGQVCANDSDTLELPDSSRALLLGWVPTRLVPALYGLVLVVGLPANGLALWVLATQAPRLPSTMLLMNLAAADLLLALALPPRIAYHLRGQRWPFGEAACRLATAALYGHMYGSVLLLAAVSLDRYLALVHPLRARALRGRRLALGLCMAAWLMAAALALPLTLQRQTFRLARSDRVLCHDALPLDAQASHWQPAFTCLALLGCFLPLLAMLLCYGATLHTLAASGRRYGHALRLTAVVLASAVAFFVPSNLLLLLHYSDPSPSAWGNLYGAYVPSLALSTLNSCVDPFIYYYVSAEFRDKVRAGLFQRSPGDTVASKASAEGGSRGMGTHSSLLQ
Put plainly: GPCR panel (control), Arrestin, CHO-K1. The assay is classed as cell-based. The following applies: reference agonist.

For a further assay, the target named is T2, MRGPRX2 (Homo sapiens, UniProt Q96LB1).
T2 sequence (Q96LB1 1-330): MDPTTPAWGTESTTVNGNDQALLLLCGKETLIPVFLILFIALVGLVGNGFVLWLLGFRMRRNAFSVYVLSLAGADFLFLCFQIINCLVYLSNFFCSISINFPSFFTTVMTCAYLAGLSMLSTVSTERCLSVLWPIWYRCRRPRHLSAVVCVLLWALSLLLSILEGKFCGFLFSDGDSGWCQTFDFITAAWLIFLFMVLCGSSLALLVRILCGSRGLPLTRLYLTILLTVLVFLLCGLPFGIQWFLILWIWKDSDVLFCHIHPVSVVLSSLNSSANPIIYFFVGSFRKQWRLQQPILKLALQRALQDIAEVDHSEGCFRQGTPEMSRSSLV
Kind of assay: GPCR panel (control), Arrestin, CHO-K1. The assay is classed as cell-based. The conditions noted are these: reference agonist.

The next assay deals with T3, EDNRB (Homo sapiens, UniProt P24530).
T3 construct: expressed in transfected cells; host or cells: CHO-K1
T3 sequence (P24530 27-442): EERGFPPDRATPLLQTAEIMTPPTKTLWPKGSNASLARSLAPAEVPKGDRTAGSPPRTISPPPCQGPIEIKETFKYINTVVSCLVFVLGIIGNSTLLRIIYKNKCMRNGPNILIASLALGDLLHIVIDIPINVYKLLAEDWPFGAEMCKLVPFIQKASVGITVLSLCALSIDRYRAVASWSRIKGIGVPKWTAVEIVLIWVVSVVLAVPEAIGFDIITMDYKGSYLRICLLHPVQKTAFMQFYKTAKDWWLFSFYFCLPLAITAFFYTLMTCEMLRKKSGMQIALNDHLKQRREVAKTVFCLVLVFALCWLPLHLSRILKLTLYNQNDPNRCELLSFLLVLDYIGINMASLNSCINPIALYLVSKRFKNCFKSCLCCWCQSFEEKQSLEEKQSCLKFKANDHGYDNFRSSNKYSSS
Put plainly: GPCR panel (control), Arrestin, CHO-K1. The conditions noted are these: reference agonist. The assay is classed as cell-based.

The next assay deals with ADCYAP1R1 (Homo sapiens, UniProt P41586). The conditions noted are these: reference agonist, ADCYAP1R1, CHO-K1, Arrestin.
The target of the next assay is T4, F2RL1 (Homo sapiens, UniProt P55085).
T4 construct: expressed in transfected cells; host or cells: U2OS
Kind of assay: GPCR panel (control), Arrestin, U2OS. The assay is classed as cell-based. The conditions noted are these: reference agonist.

The target in a further assay is T5, CRHR1 (Homo sapiens, UniProt P34998).
T5 construct: expressed in transfected cells; host or cells: CHO-K1
T5 sequence (P34998 24-415): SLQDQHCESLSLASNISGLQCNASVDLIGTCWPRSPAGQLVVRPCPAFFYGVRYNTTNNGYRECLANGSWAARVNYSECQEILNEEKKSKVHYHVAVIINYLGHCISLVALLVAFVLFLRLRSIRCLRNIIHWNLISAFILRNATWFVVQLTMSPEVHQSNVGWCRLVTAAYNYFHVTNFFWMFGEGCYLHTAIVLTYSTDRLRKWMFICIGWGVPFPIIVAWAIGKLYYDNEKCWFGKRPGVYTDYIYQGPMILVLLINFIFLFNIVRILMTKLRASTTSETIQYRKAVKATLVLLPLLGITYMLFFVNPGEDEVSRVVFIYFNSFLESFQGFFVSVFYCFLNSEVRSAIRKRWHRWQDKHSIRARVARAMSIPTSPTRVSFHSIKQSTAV
Put plainly: GPCR panel (control), Arrestin, CHO-K1. The assay is classed as cell-based. The conditions noted are these: reference agonist.

The next assay deals with T6, CRHR2 (Homo sapiens, UniProt Q13324).
T6 construct: expressed in transfected cells; host or cells: CHO-K1
T6 sequence (Q13324 1-411): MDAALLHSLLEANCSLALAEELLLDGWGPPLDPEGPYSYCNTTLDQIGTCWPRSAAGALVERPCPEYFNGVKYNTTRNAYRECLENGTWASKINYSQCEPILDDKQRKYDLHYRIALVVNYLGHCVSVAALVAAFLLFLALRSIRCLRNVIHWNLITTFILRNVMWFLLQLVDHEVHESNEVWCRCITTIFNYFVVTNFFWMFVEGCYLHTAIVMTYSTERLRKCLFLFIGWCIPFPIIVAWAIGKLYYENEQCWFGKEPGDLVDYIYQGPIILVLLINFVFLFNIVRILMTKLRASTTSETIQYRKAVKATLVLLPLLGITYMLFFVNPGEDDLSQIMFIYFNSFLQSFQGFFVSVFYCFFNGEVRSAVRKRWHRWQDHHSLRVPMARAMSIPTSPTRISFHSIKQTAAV
Put plainly: GPCR panel (control), Arrestin, CHO-K1. The assay is classed as cell-based. The conditions noted are these: reference agonist.

The next assay deals with T7, F2R (Homo sapiens, UniProt P25116).
T7 construct: expressed in transfected cells; host or cells: CHO-K1
T7 sequence (P25116 22-425): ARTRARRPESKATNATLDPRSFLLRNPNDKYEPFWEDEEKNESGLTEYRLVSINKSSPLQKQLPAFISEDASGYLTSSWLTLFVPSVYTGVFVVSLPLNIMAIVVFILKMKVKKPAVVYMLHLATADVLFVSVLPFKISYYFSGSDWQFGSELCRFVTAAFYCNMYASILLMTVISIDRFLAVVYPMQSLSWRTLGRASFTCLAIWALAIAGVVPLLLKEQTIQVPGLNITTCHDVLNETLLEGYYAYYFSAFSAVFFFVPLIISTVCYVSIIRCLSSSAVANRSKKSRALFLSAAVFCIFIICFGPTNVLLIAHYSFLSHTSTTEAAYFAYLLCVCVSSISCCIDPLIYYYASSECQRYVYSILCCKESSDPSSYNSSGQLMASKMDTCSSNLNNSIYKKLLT
Kind of assay: GPCR panel (control), Arrestin, CHO-K1. The assay is classed as cell-based. The conditions noted are these: reference agonist.

Another assay deals with T8, PTHR2 (Homo sapiens, UniProt P49190).
T8 construct: expressed in transfected cells; host or cells: CHO-K1
Put plainly: GPCR panel (control), Arrestin, CHO-K1. The assay is classed as cell-based. The following applies: reference agonist.

Take AYPGKF-NH2: at F2RL3, the EC50 is 12000 nM. Consider Cortistatin-14, for which the concentration giving a half-maximal response (EC50) on MRGPRX2 came out at 130 nM. This counts as sub-micromolar.

On EDNRB, Endothelin-3 gave a concentration for a half-maximal effect (EC50) of 12 nM. As to PACAP-27, a half-maximal effect at ADCYAP1R1 (EC50) was put at 4.7 nM.

As for SLIGRL-NH2, the EC50 on F2RL1 worked out at 1000 nM. As to Sauvagine, the EC50 is 1 nM on CRHR1 and 9.8 nM at CRHR2. For the same substance, on CRHR1, the 80% effect concentration (EC80) was 59 nM. As for TFLLR-NH2, on F2R, the midpoint of the response, the EC50, lay at 29000 nM. This lies in the double-digit micromolar range.

With TIP-39, the 50% effective concentration (EC50) at PTHR2 came to 4.2 nM.

Values taken from paper PMC10771525 (Communications Biology, 2024).
